Source: ChEMBL document CHEMBL1150493, “A practical and scalable synthesis of SR 142801, a tachykinin NK3 antagonist” (Bioorg Med Chem Lett, 1997)

Sequences of proteins named here, by UniProt entry; tags and fusion partners are left off.
UniProt P29371, whole entry: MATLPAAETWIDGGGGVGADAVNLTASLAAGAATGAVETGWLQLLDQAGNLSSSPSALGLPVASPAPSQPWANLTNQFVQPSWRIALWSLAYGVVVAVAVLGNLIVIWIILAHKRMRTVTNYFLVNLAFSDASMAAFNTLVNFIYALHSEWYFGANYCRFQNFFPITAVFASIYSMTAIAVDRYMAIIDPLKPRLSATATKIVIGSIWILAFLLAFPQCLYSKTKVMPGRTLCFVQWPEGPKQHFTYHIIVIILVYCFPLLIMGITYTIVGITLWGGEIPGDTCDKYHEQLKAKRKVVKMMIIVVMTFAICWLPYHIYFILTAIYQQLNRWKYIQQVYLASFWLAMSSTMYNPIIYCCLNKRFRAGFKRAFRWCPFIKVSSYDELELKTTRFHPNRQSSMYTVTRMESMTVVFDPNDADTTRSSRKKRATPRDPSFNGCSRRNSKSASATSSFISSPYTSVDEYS

Target: Neuromedin-K receptor (Homo sapiens, UniProt P29371)
Assay: Tachykinin receptor 3 binding affinity was determined by incubation with CHO cells expressing human NK3 receptors
Assay type: cell-based

CC(=O)N(C)C1(c2ccccc2)CCN(CCC[C@]2(c3ccc(Cl)c(Cl)c3)CCCN(C(=O)c3ccccc3)C2)CC1 [OSANETANT]
IC50: 800 pM
